Measurements as given in publication PMC4527783 (PLoS ONE, 2015).
*1 amine or outer side, *2 acyl side, *3 side chain or, on linkers, in order; H or OH if unused. Where a SMILES comes first, the peptide text is derived from it. [ ]: non-standard residue; d: D form. X1 = N[C@@H](Cc1ccccc1)CN(CC(=O)[*:2])[*:1]; Phe(4-F) = N[C@@H](Cc1ccc(F)cc1)C(=O)O; Aib = CC(C)(N)C(=O)O

By UniProt entry, the sequences of proteins in these tests, tags left out. Where a name states a change or a piece, a line headed by the entry shows the natural chain unless it says otherwise.
UniProt P41146: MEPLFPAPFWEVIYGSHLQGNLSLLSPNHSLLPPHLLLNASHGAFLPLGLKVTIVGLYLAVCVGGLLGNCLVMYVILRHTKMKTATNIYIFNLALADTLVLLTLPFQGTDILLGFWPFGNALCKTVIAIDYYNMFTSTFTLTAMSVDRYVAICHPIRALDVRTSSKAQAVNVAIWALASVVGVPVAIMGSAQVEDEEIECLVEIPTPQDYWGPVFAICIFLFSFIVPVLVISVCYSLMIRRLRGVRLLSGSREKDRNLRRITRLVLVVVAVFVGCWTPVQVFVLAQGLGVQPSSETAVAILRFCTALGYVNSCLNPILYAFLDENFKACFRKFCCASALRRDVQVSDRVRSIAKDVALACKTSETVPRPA

How the values were obtained:
[1] = target: T1, human NOP-RLuc/β-arrestin 2-RGFP (Homo sapiens, UniProt P41146); assay: BRET NOP/β-arrestin 2 interaction, antagonist potency vs N/OFQ, whole cells; details: for Kb: pKB (CL95%), β-arrestin 2
human NOP-RLuc/Gβ1-RGFP [2] = target: T2, human NOP-RLuc/Gβ1-RGFP (Homo sapiens, UniProt P41146)
[3] = target: T1, human NOP-RLuc/β-arrestin 2-RGFP
[4] = target: T1, human NOP-RLuc/β-arrestin 2-RGFP; assay: cell-based
human NOP-RLuc/Gβ1-RGFP [5] = target: T2, human NOP-RLuc/Gβ1-RGFP; assay: Constitutive NOP/G-protein coupling (basal BRET ratio), cell membranes; assay type: biochemical; details: incubation time prolonged to 15 min
Experimental: In whole cells luminescence was recorded in 96-well sterile poly-D-lysine-coated white opaque microplates, while in membranes it was recorded in 96-well untreated white opaque microplates (PerkinElmer, Waltham, MA, USA). For the determination of NOP/β-arrestin 2 interactions, cells co-expressing NOP-Rluc and β-arrestin 2-RGFP were plated 24 h before the experiment (100,000 cells / well). The cells were prepared for the experiment substituting the medium with Dulbecco’s phosphate buffered saline (DPBS) with 0.5 mM MgCl2 and 0.9 mM CaCl2. For the determination of NOP/G-protein interaction, membranes (3 μg of protein) prepared from cells co-expressing NOP-Rluc and Gβ1-RGFP were added to wells in DPBS. Coelenterazine at a final concentration of 5 μM was always injected 10 minutes prior reading the cell plate. The receptor / G-protein interaction was measured in cell membranes to exclude the involvement of other cellular processes (i.e. arrestin recruitment, internalization). Next, different concentrations of ligands in 20 μL of PBS—BSA 0.01% (Bovine Serum Albumin, Sigma Chemical Co. (Poole, UK)) were added and incubated for an additional 5 min before reading luminescence. […]
The GPCR/G-protein interaction assessed via BRET in cell membranes is abolished by the addition of guanine nucleotides. […]

human NOP-RLuc/Gβ1-RGFP [6] = target: T2, human NOP-RLuc/Gβ1-RGFP; assay: BRET NOP/G-protein interaction, antagonist potency vs N/OFQ, cell membranes

SMILES: C[C@H](NC(=O)CNC(=O)[C@@H](NC(=O)[C@H](Cc1ccccc1)NC(=O)CNC(=O)CNC[C@@H](N)Cc1ccccc1)[C@@H](C)O)C(=O)N[C@@H](CCCN=C(N)N)C(=O)N[C@@H](CCCCN)C(=O)N[C@@H](CO)C(=O)N[C@@H](C)C(=O)N[C@@H](CCCN=C(N)N)C(=O)N[C@@H](CCCCN)C(N)=O [[F/G]N/OFQ(1–13)-NH2, [Phe^1ψ(CH2-NH)Gly^2]N/OFQ(1–13)-NH2] (H-[X1]GFTGARKSARK-NH2)
- Kb [1]: 30.2 nM

SMILES: Cc1cccc2c1CC[C@H](CN1CCC(c3c(Cl)cccc3Cl)CC1)C[C@@H]2O [SB-612111, (-)-cis-1-methyl-7-[[4-(2,6-dichlorophenyl)piperidin-1-yl]methyl]-6,7,8,9-tetrahy dro-5H-benzocyclohepten-5-ol]
- Emax ± sem, G protein (human NOP-RLuc/Gβ1-RGFP [2]): inactive
- Emax, G protein (Table 3) (human NOP-RLuc/Gβ1-RGFP [2]): inactive
- pEC50 (CL95%), G protein (human NOP-RLuc/Gβ1-RGFP [2]): inactive
- pEC50, G protein (Table 3) (human NOP-RLuc/Gβ1-RGFP [2]): inactive
- Emax ± sem, β-arrestin 2 [3]: inactive
- Emax, β-arrestin 2 (Table 3) [3]: inactive
- pEC50 (CL95%), β-arrestin 2 [3]: inactive
- antagonism of N/OFQ, β-arrestin 2 (in words) [1]: expected competitive inhibition

SMILES: C[C@H](NC(=O)[C@H](CO)NC(=O)[C@H](CCCCN)NC(=O)[C@H](CCCNC(=N)N)NC(=O)C(C)(C)NC(=O)CNC(=O)[C@@H](NC(=O)[C@H](Cc1ccc(F)cc1)NC(=O)CNC(=O)CNC[C@@H](N)Cc1ccccc1)[C@@H](C)O)C(=O)N[C@@H](CCCNC(=N)N)C(=O)N[C@@H](CCCCN)C(=O)N[C@@H](CCCNC(=N)N)C(=O)N[C@@H](CCCCN)C(=O)N[C@@H](CC(N)=O)C(=O)N[C@@H](CCC(N)=O)C(N)=O [UFP-113] (H-[X1]G[Phe(4-F)]TG[Aib]RKSARKRKNQ-NH2)
- Emax ± sem, β-arrestin 2 [3]: inactive
- Emax, β-arrestin 2 (Table 3) [3]: inactive
- concentration ratio (CR), β-arrestin 2 [3]: inactive
- pEC50 (CL95%), β-arrestin 2 [3]: inactive
- Kb [1]: 0.38 nM

SMILES: C[C@H](NC(=O)[C@H](CO)NC(=O)[C@H](CCCCN)NC(=O)[C@H](CCCNC(=N)N)NC(=O)C(C)(C)NC(=O)CNC(=O)[C@@H](NC(=O)[C@H](Cc1ccc(F)cc1)NC(=O)CNC(=O)CNC(=O)[C@@H](N)Cc1ccccc1)[C@@H](C)O)C(=O)N[C@@H](CCCNC(=N)N)C(=O)N[C@@H](CCCCN)C(=O)N[C@@H](CCCNC(=N)N)C(=O)N[C@@H](CCCCN)C(=O)N[C@@H](CC(N)=O)C(=O)N[C@@H](CCC(N)=O)C(N)=O [UFP-112]
- EC50 [4]: 4.27 nM

SMILES: CC[C@H](C)[C@H](NC(=O)[C@H](CCCNC(=N)N)NC(=O)[C@H](Cc1ccc(O)cc1)NC(=O)[C@H](Cc1ccc(O)cc1)NC(=O)[C@H](CCCNC(=N)N)NC(C)=O)C(=O)N[C@@H](CCCCN)C(N)=O [Ac-RYYRIK-NH2]
- Emax ± sem, β-arrestin 2 [3]: inactive
- Emax, β-arrestin 2 (Table 3) [3]: inactive
- pEC50 (CL95%), β-arrestin 2 [3]: inactive

SMILES: Nc1nc2c(ncn2[C@@H]2O[C@H](COP(=O)(O)OP(=O)(O)O)[C@@H](O)[C@H]2O)c(=O)[nH]1 [GDP]
- inhibition of basal BRET (human NOP-RLuc/Gβ1-RGFP [5]): 5%

SMILES: C[C@H](NC(=O)CNC(=O)[C@@H](NC(=O)[C@H](Cc1ccccc1)NC(=O)CNC(=O)CNC[C@@H](N)Cc1ccccc1)[C@@H](C)O)C(=O)N[C@@H](CCCNC(=N)N)C(=O)N[C@@H](CCCCN)C(=O)N[C@@H](CO)C(=O)N[C@@H](C)C(=O)N[C@@H](CCCNC(=N)N)C(=O)N[C@@H](CCCCN)C(N)=O [[F/G]N/OFQ(1–13)-NH2, [Phe^1ψ(CH2-NH)Gly^2]N/OFQ(1–13)-NH2] (H-[X1]GFTGARKSARK-NH2)
- Emax ± sem, β-arrestin 2 [3]: inactive
- Emax, β-arrestin 2 (Table 3) [3]: inactive
- concentration ratio (CR), β-arrestin 2 [3]: inactive
- pEC50 (CL95%), β-arrestin 2 [3]: inactive

SMILES: C[C@H](NC(=O)CNC(=O)[C@@H](NC(=O)[C@H](Cc1ccccc1)NC(=O)CNC(=O)CNC(=O)CNCc1ccccc1)[C@@H](C)O)C(=O)N[C@@H](CCCNC(=N)N)C(=O)N[C@@H](CCCCN)C(=O)N[C@@H](CO)C(=O)N[C@@H](C)C(=O)N[C@@H](CCCNC(=N)N)C(=O)N[C@@H](CCCCN)C(=O)N[C@@H](CCCNC(=N)N)C(=O)N[C@@H](CCCCN)C(=O)N[C@@H](CC(N)=O)C(=O)N[C@@H](CCC(N)=O)C(N)=O [UFP-101, [Nphe1,Arg14,Lys15]nociceptin-NH2]
- Kb (human NOP-RLuc/Gβ1-RGFP [6]): 21.9 nM
